{
  "source": "patent US9242960B2",
  "about": "“P38MAP kinase inhibitors” (Respivert Ltd., priority 2009, dated 2016)",
  "key": {"[1]": {"test_system": "BEAS2B cells", "assay": "Rhinovirus-induced IL-8 release in BEAS2B cells", "assay_type": "cell-based", "conditions": "Homo sapiens, BEAS-2B"}, "[2]": {"test_system": "BEAS2B cells", "assay": "Poly I:C-induced ICAM-1 induction in BEAS2B cells", "assay_type": "cell-based", "conditions": "Homo sapiens, BEAS-2B; read-out: IC50 poly I:C induced ICAM1 expression in BEAS2B cells", "protocol": "Poly I:C (1 ug/ml) (Invivogen Ltd., San Diego, Calif.) was transfected into BEAS2B cells (human bronchial epithelial cells, ATCC) with Oligofectamine (Invitrogen, Carlsbad, Calif.). Cells were pre-incubated with final concentrations of compound for 2 hrs. The level of ICAM1 expression on the cell surface was determined by cell-based ELISA. Briefly, at 18 hrs after poly I:C transfection, cells were fixed with 4% formaldehyde in PBS. After quenching endogenous peroxidase by adding 0.1% sodium azide and 1% hydrogen peroxide, cells were washed with wash-buffer (0.1% Tween in PBS: PBS-Tween). After blocking the wells with 5% milk in PBS-Tween for 1 hr, the cells were incubated with anti-human ICAM-1 antibody (Cell Signaling Technology, Danvers, Mass.) in 1% BSA PBS overnight at 4° C. Cells were washed with PBS-Tween and incubated with the secondary antibody (HRP-conjugated anti-rabbit IgG, Dako Ltd., Glostrup, Denmark). The ICAM-1 signal was detected by adding substrate and reading the absorbance at 450 nm with a reference wavelength of 655 nm using a spectrophotometer. […] The measured OD 450-655 readings were corrected for cell number by dividing with the OD595 reading in each well. The inhibition of ICAM-1 expression was calculated at each concentration of test compound by comparison with vehicle control."}, "[3]": {"test_system": "sputum macrophages", "assay": "Sputum macrophage assay (LPS-induced IL-8 release)", "assay_type": "cell-based", "conditions": "Homo sapiens"}, "[4]": {"test_system": "differentiated U937 cells", "assay": "LPS-induced TNFα release in differentiated U937 cells", "assay_type": "cell-based", "conditions": "Homo sapiens, U-937, read-out: IC50 Values LPS-induced TNFα release d-U937 cells", "protocol": "U937 cells, human monocytic cell line, were differentiated to macrophage-type cells by incubation with phorbol myristate acetate (PMA; 100 ng/ml) for 48 to 72 hr. Where appropriate, cells were pre-incubated with final concentrations of compound for 2 hr. […] Coli: O111:B4, Sigma) for 4 hr, and the supernatant collected for determination of TNFα concentration by sandwich ELISA (Duo-set, R&D systems). […] THP-1, human monocytic cell line, was also used for this assay. […] Coli: O111:B4, Sigma) for 4 hr, and the supernatant collected for determination of TNFα concentration."}, "[5]": {"test_system": "Allergen-induced eosinophil accumulation", "conditions": "guinea pigs; for Inhibition of eosinophils in BALF following allergen challenge; Neutrophil numbers in BAL: aerosol, mean ± SEM"}, "[6]": {"test_system": "LPS-induced neutrophils accumulation", "assay": "LPS-induced neutrophils accumulation in mice", "assay_type": "in vivo"}, "[7]": {"test_system": "neutrophil and macrophage accumulation into airways", "assay": "Cigarette smoke model", "assay_type": "in vivo, A/J mice", "conditions": "intra-nasally twice daily for 3 days", "protocol": "A/J mice (males, 5 weeks old) were exposed to cigarette smoke (4% cigarette smoke, diluted with compressed air) for 30 min/day for 11 days using a Tobacco Smoke Inhalation Experiment System for small animals (Model SIS-CS; Sibata Scientific Technology, Tokyo, Japan). Test substances were given intra-nasally (35 μl of solution in 50% DMSO/PBS) and therapeutically twice daily for 3 days after the final cigarette smoke exposure. Twelve hours after the last dosing, animals were anesthetized, the trachea cannulated and bronchoalveolar lavage fluid (BALF) was collected."}, "[8]": {"test_system": "differentiated U937 cells", "assay": "LPS-induced IL-8 release in differentiated U937 cells", "assay_type": "cell-based", "conditions": "Homo sapiens, U-937", "protocol": "U937 cells, human monocytic cell line, were differentiated to macrophage-type cells by incubation with phorbol myristate acetate (PMA; 100 ng/ml) for 48 to 72 hours. Cells were pre-incubated with final concentrations of compound for 2 hrs. […] Coli: O111:B4, Sigma) for 4 hrs, and the supernatant collected for determination of the IL-8 concentration by sandwich ELISA (Duo-set, R&D systems). The inhibition of IL-8 production was calculated at each concentration of test compound by comparison with vehicle control."}, "[9]": {"test_system": "Human rhinovirus RV16 (HRV)", "assay": "Rhinovirus-titre assay in MRC5 cells", "assay_type": "cell-based", "conditions": "rhinovirus replication in MRC5 cells", "protocol": "Human rhinovirus RV16 (HRV) was obtained form American Type Culture Collection (Manassas, Va.). Viral stocks were generated by infecting Hela cells with HRV until 80% of the cells were cytopathic.\nMRC5 cells (human lung fibroblast, ATCC) were infected with 1 MOI (multiplicity of infection of 1.0) of HRV and incubated for 1 hr at 33° C. with gentle shaking for absorption. The cells were then washed with PBS, fresh media added and the cells were incubated for a further 96 hr. The supernatant was collected and 10-fold serial dilutions of virus containing supernatant were prepared. All titrations were performed by infecting confluent Hela cell monolayers with serially diluted supernantant (10^−1 to 10^−5) and assessing cytopathetic effect by MTT assay 4 days after infection. The amount of virus required to infect 50% of Hela cells was calculated in each treatment as TCID50 U/mL. Compounds were added 24 and 2 hr before HRV infection and 1 hr after infection when non-infected HRV was washed out."}, "[10]": {"test_system": "BEAS2B cells", "assay": "Rhinovirus-induced ICAM-1 expression in BEAS2B cells", "assay_type": "cell-based", "conditions": "Homo sapiens, BEAS-2B"}, "[11]": {"test_system": "bronchoconstrictor response to ovalbumin challenge (sGaw)", "assay": "Ovalbumin challenge/parainfluenza infection model", "assay_type": "in vivo", "conditions": "nebulised 0.15 mg per day, days 10-15, PIV-3 infected sensitised guinea-pigs"}},
  "note": "pIC50: −log10 of the molar value. Where two headings read alike, the source gives them in different places.",
  "data": [
    {"smiles": "COCC(=O)Nc1cc(Oc2ccc(NC(=O)Nc3cc(C(C)(C)C)nn3-c3ccc(C)cc3)c3ccccc23)ccn1", "note": "[Compound (1), N-(4-(4-(3-(3-tert-Butyl-1-p-tolyl-1H-pyrazol-5-yl)ureido)naphthalen-1-yloxy)pyridin-2-yl)-2-methoxyacetamide]", "values": [
      {"measurement": "pIC50", "setting": "[1]", "value": 10.19},
      {"measurement": "pIC50", "setting": "[2]", "value": 8.77},
      {"measurement": "pIC50", "setting": "[3]", "value": 8.30},
      {"measurement": "pIC50", "setting": "[4]", "value": 8.68},
      {"measurement": "Inhibition of eosinophils in BALF following allergen challenge; Neutrophil numbers in BAL", "setting": "[5]; column head 2 hr pre-dose (text: 8 hr post ovalbumin challenge)", "value": "12.4 ± 1.7 ×10^5/mL"},
      {"measurement": "Inhibition of eosinophils in BALF following allergen challenge; Neutrophil numbers in BAL", "setting": "[5]; column head 12 hr pre-dose (text: 24 hr post ovalbumin challenge)", "value": "21.6 ± 3.9 ×10^5/mL"},
      {"measurement": "eosinophil accumulation into the BALF", "setting": "[5]; 8 and 24 hr post ovalbumin challenge", "value": "inhibit eosinophil accumulation"},
      {"measurement": "Neutrophil numbers in BAL", "setting": "[6]; 0.02 mg/ml intra tracheal, 2 hr pre-dose, 8 hr after LPS, mean ± SEM", "value": "15.1 ± 2.1 ×10^5/mL"},
      {"measurement": "Neutrophil numbers in BAL", "setting": "[6]; 0.02 mg/ml intra tracheal, 12 hr pre-dose, 8 hr after LPS, mean ± SEM", "value": "20.1 ± 2.9 ×10^5/mL"},
      {"measurement": "Neutrophil numbers in BAL", "setting": "[6]; 0.1 mg/ml intra tracheal, 2 hr pre-dose, 8 hr after LPS, mean ± SEM", "value": "10.4 ± 1.6 ×10^5/mL"},
      {"measurement": "Neutrophil numbers in BAL", "setting": "[6]; 0.1 mg/ml intra tracheal, 12 hr pre-dose, 8 hr after LPS, mean ± SEM", "value": "16.7 ± 2.4 ×10^5/mL"},
      {"measurement": "Neutrophil numbers in BAL", "setting": "[6]; 0.2 mg/ml intra tracheal, 2 hr pre-dose, 8 hr after LPS, mean ± SEM", "value": "4.6 ± 1.2 ×10^5/mL"},
      {"measurement": "Neutrophil numbers in BAL", "setting": "[6]; 0.2 mg/ml intra tracheal, 8 hr pre-dose, mean ± SEM (vehicle 16.38 ± 2.53)", "value": "9.65 ± 1.50 ×10^5/mL"},
      {"measurement": "Neutrophil numbers in BAL", "setting": "[6]; 0.2 mg/ml intra tracheal, 12 hr pre-dose, 8 hr after LPS, mean ± SEM", "value": "14.3 ± 2.0 ×10^5/mL"},
      {"measurement": "neutrophil accumulation into the BALF", "setting": "[6]; treated at 2, 8 or 12 hr before LPS challenge", "value": "inhibit neutrophil accumulation"},
      {"measurement": "numbers of activated macrophages", "setting": "[7]", "value": "marked, dose-dependent reduction"},
      {"measurement": "numbers of neutrophils", "setting": "[7]", "value": "marked, dose-dependent reduction"},
      {"measurement": "pIC50", "setting": "[8]", "value": 8.10},
      {"measurement": "concentration that decreased the viral titre by 1 log order", "setting": "[9]", "value": 5.2, "unit": "nM"},
      {"measurement": "pIC50", "setting": "[10]", "value": 9.43},
      {"measurement": "initial (1st hr) bronchoconstrictor response to ovalbumin challenge", "setting": "[11]", "value": "no effect"},
      {"measurement": "subsequent bronchoconstrictor response (2-12 hr post treatment)", "setting": "[11]", "value": "markedly inhibited"}
    ]}
  ]
}
